This is an account of results in ChEMBL document CHEMBL5390243, “Catecholamine Derivatives: Natural Occurrence, Structural Diversity, and Biological Activity” (J Nat Prod, 2023).

This assay has as its target T1, Peroxisome proliferator-activated receptor alpha (Homo sapiens) (UniProt Q07869).
T1 sequence (whole entry): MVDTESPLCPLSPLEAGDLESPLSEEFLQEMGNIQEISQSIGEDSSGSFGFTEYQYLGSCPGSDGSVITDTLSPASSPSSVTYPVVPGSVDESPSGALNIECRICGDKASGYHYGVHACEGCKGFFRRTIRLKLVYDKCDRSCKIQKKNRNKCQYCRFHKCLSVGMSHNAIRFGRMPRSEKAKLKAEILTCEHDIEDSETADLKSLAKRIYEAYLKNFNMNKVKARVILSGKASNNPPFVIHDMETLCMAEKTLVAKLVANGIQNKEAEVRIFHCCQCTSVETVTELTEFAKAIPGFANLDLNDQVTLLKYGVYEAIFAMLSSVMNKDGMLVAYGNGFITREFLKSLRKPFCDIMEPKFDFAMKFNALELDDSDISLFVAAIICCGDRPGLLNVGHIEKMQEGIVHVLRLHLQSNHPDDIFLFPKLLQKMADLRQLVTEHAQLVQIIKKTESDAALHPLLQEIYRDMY
As to the kind of experiment: Activation of PPARalpha (unknown origin) expressed in human HepG2 cells assessed as fold change at 12.5 to 50 ug/ml incubated for 24 hrs by luciferase assay. The class given is cell-based. As to conditions: filed as activator, dose 12.5-50 µg/ml.

With `O=C1c2cc(O)c(O)cc2CCn2cccc21`, the fold change (FC) amounted to 1.06.
